From US11306156 (dated 2022)

Chains of the proteins cited; added tags and fusions are not shown. Residues count along the entry.
UniProt P13726, 33-251 limits assumed: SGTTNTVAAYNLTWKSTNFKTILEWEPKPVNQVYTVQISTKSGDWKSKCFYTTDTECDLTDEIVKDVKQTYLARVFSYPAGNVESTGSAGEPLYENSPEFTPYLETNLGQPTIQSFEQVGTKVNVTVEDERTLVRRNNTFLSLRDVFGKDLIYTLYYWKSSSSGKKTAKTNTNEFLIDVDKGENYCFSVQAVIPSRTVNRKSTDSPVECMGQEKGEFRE

Assays:
[1] = target: T1, tissue factor (TF) antigen (human, UniProt P13726 33-251, limits assumed); experiment: SPR; Fab captured by anti-His, TF as analyte; LCCA set 9828
T1 construct: The construct of the antigen is not described

[2] = target: T2, tissue factor (TF) antigen (human, UniProt P13726 33-251, limits assumed); experiment: SPR, Fab captured on anti-penta His surface, TF as analyte, 1:1 fit
T2 construct: The construct of TF used in the SPR assay is not described

Binder | Kd [1] | Kd [2] | change in KD with respect to wild type, -(log(KD_design) - log(KD_wt)) [2]
D3H44 Fab heterodimer, H Q39R_S186R / L Q38E_Q124E_Q160E_T180E (H1L1 Fab of LCCA set 9828) (Fab, V domains shown) VH: EVQLVESGGGLVQPGGSLRLSCAASGFNIKEYYMHWVRRAPGKGLEWVGLIDPEQGNTIYDPKFQDRATISADNSKNTAYLQMNSLRAEDTAVYYCARDTAAYFDYWGQGTLVTVSS VL: DIQMTQSPSSLSASVGDRVTITCRASRDIKSYLNWYQEKPGKAPKVLIYYATSLAEGVPSRFSGSGSGTDYTLTISSLQPEDFATYYCLQHGESPWTFGQGTKVEIKR | 0.14 nM | – | –
D3H44 Fab heterodimer, H1L1 of LCCA Set # 9821 (H1 Q39R_D146G_H172R_Q179K; L1 Q38E_Q124E_Q160E_T180E) (Fab, V domains shown) VH: EVQLVESGGGLVQPGGSLRLSCAASGFNIKEYYMHWVRRAPGKGLEWVGLIDPEQGNTIYDPKFQDRATISADNSKNTAYLQMNSLRAEDTAVYYCARDTAAYFDYWGQGTLVTVSS VL: DIQMTQSPSSLSASVGDRVTITCRASRDIKSYLNWYQEKPGKAPKVLIYYATSLAEGVPSRFSGSGSGTDYTLTISSLQPEDFATYYCLQHGESPWTFGQGTKVEIKR | – | 0.07 nM | 0.38
D3H44 Fab heterodimer, H1L1 of LCCA Set # 9827 (H1 Q39R_Q179K; L1 Q38E_Q124E_Q160E_T180E) (Fab, V domains shown) VH: EVQLVESGGGLVQPGGSLRLSCAASGFNIKEYYMHWVRRAPGKGLEWVGLIDPEQGNTIYDPKFQDRATISADNSKNTAYLQMNSLRAEDTAVYYCARDTAAYFDYWGQGTLVTVSS VL: DIQMTQSPSSLSASVGDRVTITCRASRDIKSYLNWYQEKPGKAPKVLIYYATSLAEGVPSRFSGSGSGTDYTLTISSLQPEDFATYYCLQHGESPWTFGQGTKVEIKR | – | 0.17 nM | -0.03
